Test results taken from patent publication US4652450A, “Bacterial FSH binding inhibitor” (Research Corporation, priority 1984, dated 1987).

Experiments:
[1] = molecular target: FSH receptor (calf testis membranes); assay: FSH radioligand-receptor assay: inhibition of 125I-hFSH binding to calf testis membranes; conditions: worked out from the bFSH BI50 and its 50 times lower activity
[2] = test system: LH receptor (rat Leydig cells as a receptor source); assay: LH-BI radioligand-receptor assay: inhibition of 125I-hLH binding to rat Leydig cells; conditions: hormone reference preparation

Substance | BI50, analogous value for highly purified hFSH [1] | BI50 dose [2]
h FSH (17812): highly purified hFSH used to prepare the 125I-hFSH | 6.9 ng/ml | –
hLH (LER 1972): highly purified human LH reference preparation, also used to prepare the 125I-hLH | – | 5.3 ± 0.4 ng/mL
